scFv variants of Ab-14 (light chain) against a SARS-CoV-2 spike peptide

Source: Li et al. 2023 (doi:10.1038/s41467-023-39022-2), MIT Lincoln Laboratory and A-Alpha Bio; data file from the FLAb repository.

All variants were tested on one target, the spike HR2 peptide PDVDLGDISGINAS (SARS-CoV-2).

Each scFv is VH, a (GGGGS)3 linker, VL, as in the parent Ab-14, and differs from it in the CDRs of the light chain only.
VH: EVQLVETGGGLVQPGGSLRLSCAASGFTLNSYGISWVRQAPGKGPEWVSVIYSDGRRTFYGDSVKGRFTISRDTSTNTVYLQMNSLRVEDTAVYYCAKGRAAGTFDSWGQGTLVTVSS
VL: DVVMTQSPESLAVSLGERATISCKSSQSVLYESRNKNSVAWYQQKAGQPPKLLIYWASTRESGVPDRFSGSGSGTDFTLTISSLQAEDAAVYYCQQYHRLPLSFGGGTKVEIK

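These sequences belong to a second round, designed from the earlier measurements on random variants of the parent. Group labels follow the data file (Ctrl: baseline library sampled from a position-specific scoring matrix, with some repeated check sequences; Rand: our label for a block that the file lists under HC and that is probably the random mutants of the ten best first-round binders; En: ensemble of fine-tuned language models; GP: Gaussian process model; HC: hill climbing; Gen: genetic algorithm; Gibbs: Gibbs sampling; a sequence that several methods proposed may carry one label only). Affinity was read by AlphaSeq, a pooled yeast mating assay with surface-displayed partners. After mating in shaken culture at 30 °C for 16 h, diploids were selected and their barcode pairs sequenced. A regression on co-assayed BCL2-family reference pairs converts the normalised counts of each replicate to an apparent Kd. The assay was run in six technical replicates.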

Variants are written as CDR1, CDR2 and CDR3 of the light chain (limits as in the source). Parent: KSSQSVLYESRNKNSVA, WASTRES, QQYHRLPLS.
Values are apparent Kd, the geometric mean of the replicates that gave a signal; lower means stronger binding.
"no signal" means that the variant was in the library but no mating with the target was seen in any replicate; the authors take this as a sign of poor binding, and no number exists.
In the paper, a design with two or fewer of six values counts as a poor binder.

{"CDR-L1": "KSSQSVLYNSRNKNSVA", "CDR-L2": "SASTRES", "CDR-L3": "QQYHRLPLS", "group": "Ctrl", "apparent Kd": "17 nM", "replicates with signal": "6/6", "empty controls": "0/18"}
{"CDR-L1": "KSSSSVLYISRNKNSVA", "CDR-L2": "WASTRES", "CDR-L3": "QQYHRLPLS", "group": "Ctrl", "apparent Kd": "2.7 nM", "replicates with signal": "6/6", "empty controls": "0/18"}
{"CDR-L1": "KSSQSVGYESRNKNSVA", "CDR-L2": "GASTRES", "CDR-L3": "QQYHRLPLS", "group": "Ctrl", "apparent Kd": "5.0 nM", "replicates with signal": "6/6", "empty controls": "0/18"}
{"CDR-L1": "MISQVMNTLTRQGNNVA", "CDR-L2": "DLQERED", "CDR-L3": "QQYFRLPLS", "group": "En_Gen", "apparent Kd": "12 nM", "replicates with signal": "6/6", "empty controls": "0/18"}
{"CDR-L1": "KLEQSQLYGSRNKNSVA", "CDR-L2": "NASERER", "CDR-L3": "QQYHRLPLS", "group": "GP_Gibbs", "apparent Kd": "480 pM", "replicates with signal": "6/6", "empty controls": "1/18"}
{"CDR-L1": "KSSQSVLYESPNKNGVA", "CDR-L2": "EASTRES", "CDR-L3": "QQYHRLPLS", "group": "Ctrl", "apparent Kd": "5.0 nM", "replicates with signal": "6/6", "empty controls": "1/18"}
{"CDR-L1": "KSSQSHLYESRNKNSVA", "CDR-L2": "GASTRES", "CDR-L3": "QAYHRLTLS", "group": "GP_HC", "apparent Kd": "48 nM", "replicates with signal": "6/6", "empty controls": "0/18"}
{"CDR-L1": "TLTQSVLMESHNKNSVA", "CDR-L2": "DLSTRGS", "CDR-L3": "QQYDRLPLS", "group": "En_HC", "apparent Kd": "3.4 nM", "replicates with signal": "6/6", "empty controls": "0/18"}
{"CDR-L1": "KLMQSEEYESRNKNSVA", "CDR-L2": "NASQRES", "CDR-L3": "QQYHRLPLS", "group": "GP_Gen", "apparent Kd": "1.0 nM", "replicates with signal": "6/6", "empty controls": "1/18"}
{"CDR-L1": "KSSQSVLYESRNKYSVA", "CDR-L2": "WAQTRES", "CDR-L3": "QQYHRLPLS", "group": "Ctrl", "apparent Kd": "350 nM", "replicates with signal": "5/6", "empty controls": "1/18"}
{"CDR-L1": "KFSYSNPYETRNKNSVA", "CDR-L2": "EASQREE", "CDR-L3": "QQYHRLPLS", "group": "GP_Gibbs", "apparent Kd": "1.6 nM", "replicates with signal": "6/6", "empty controls": "0/18"}
{"CDR-L1": "KSYQSVLYESRDKNAVA", "CDR-L2": "AASTRES", "CDR-L3": "QQYHRLDLS", "group": "Ctrl", "apparent Kd": "no signal", "replicates with signal": "0/6", "empty controls": "0/18"}
{"CDR-L1": "HLSQSVLMESRNKNSVA", "CDR-L2": "WASTREQ", "CDR-L3": "SQYERLPLS", "group": "Ctrl", "apparent Kd": "36 nM", "replicates with signal": "6/6", "empty controls": "0/18"}
{"CDR-L1": "KFSQSWLYESRNKNSVA", "CDR-L2": "NASQRMS", "CDR-L3": "QQYHRLPLS", "group": "GP_Gen", "apparent Kd": "1.6 nM", "replicates with signal": "6/6", "empty controls": "4/18"}
{"CDR-L1": "KISQMVWYESTWWNAIA", "CDR-L2": "QTSEREE", "CDR-L3": "QQYHRLPLS", "group": "En_HC", "apparent Kd": "11 nM", "replicates with signal": "6/6", "empty controls": "1/18"}
{"CDR-L1": "KISFQYRYEQLSKNNIA", "CDR-L2": "EVQTRLK", "CDR-L3": "QQYHRLPLS", "group": "En_HC", "apparent Kd": "15 nM", "replicates with signal": "6/6", "empty controls": "1/18"}
{"CDR-L1": "TISELYNQALGIRNNVA", "CDR-L2": "NNQTRED", "CDR-L3": "QQYARLPLS", "group": "En_Gen", "apparent Kd": "22 nM", "replicates with signal": "5/6", "empty controls": "0/18"}
{"CDR-L1": "KLSLSMSYSHEGTRHIA", "CDR-L2": "NGSNRCI", "CDR-L3": "QQYHRLPLI", "group": "En_Gibbs", "apparent Kd": "670 nM", "replicates with signal": "3/6", "empty controls": "2/18"}
{"CDR-L1": "KFSQQVLYESRTKNQVA", "CDR-L2": "NFSTRES", "CDR-L3": "QQYHRLPLS", "group": "Rand", "apparent Kd": "5.8 nM", "replicates with signal": "6/6", "empty controls": "0/18"}
{"CDR-L1": "KLSQSMLYESRNKNSVA", "CDR-L2": "NASTRLS", "CDR-L3": "QQYHRLPLS", "group": "GP_Gen", "apparent Kd": "770 pM", "replicates with signal": "6/6", "empty controls": "0/18"}
{"CDR-L1": "QLPNARPDGYLQKNNVA", "CDR-L2": "EGTERSD", "CDR-L3": "QQYMRLPLF", "group": "En_Gibbs", "apparent Kd": "1.0 nM", "replicates with signal": "6/6", "empty controls": "1/18"}
{"CDR-L1": "KISQMVRVGMTHGNSIA", "CDR-L2": "EEATRAK", "CDR-L3": "QQYHRLPLA", "group": "En_Gen", "apparent Kd": "37 nM", "replicates with signal": "6/6", "empty controls": "1/18"}

The closing 2 entries, repeated:

{"CDR-L1": "QLPNARPDGYLQKNNVA", "CDR-L2": "EGTERSD", "CDR-L3": "QQYMRLPLF", "group": "En_Gibbs", "apparent Kd": "1.0 nM", "replicates with signal": "6/6", "empty controls": "1/18"}
{"CDR-L1": "KISQMVRVGMTHGNSIA", "CDR-L2": "EEATRAK", "CDR-L3": "QQYHRLPLA", "group": "En_Gen", "apparent Kd": "37 nM", "replicates with signal": "6/6", "empty controls": "1/18"}

Three control strains display no target. For all light chain designs, 4% of the pairings with them gave a signal, with a median of 430 nM and one signal in twenty below 38 nM, so weak values seen in few replicates may be background. Also given: how often the same scFv was detected with the empty control strains.
Of ten entries with the parent sequence, four were seen in most replicates (averages 2.2 nM to 240 nM), three in one and three in none, so single entries are noisy.
Values of this round are not directly comparable with the first-round values of the same sequences.